Source: article PMC8471380 (Molecules, 2021)

Amino acid sequences for entries named in this document (tags omitted). Residues count along the entry.
UniProt Q00960, 27-1482: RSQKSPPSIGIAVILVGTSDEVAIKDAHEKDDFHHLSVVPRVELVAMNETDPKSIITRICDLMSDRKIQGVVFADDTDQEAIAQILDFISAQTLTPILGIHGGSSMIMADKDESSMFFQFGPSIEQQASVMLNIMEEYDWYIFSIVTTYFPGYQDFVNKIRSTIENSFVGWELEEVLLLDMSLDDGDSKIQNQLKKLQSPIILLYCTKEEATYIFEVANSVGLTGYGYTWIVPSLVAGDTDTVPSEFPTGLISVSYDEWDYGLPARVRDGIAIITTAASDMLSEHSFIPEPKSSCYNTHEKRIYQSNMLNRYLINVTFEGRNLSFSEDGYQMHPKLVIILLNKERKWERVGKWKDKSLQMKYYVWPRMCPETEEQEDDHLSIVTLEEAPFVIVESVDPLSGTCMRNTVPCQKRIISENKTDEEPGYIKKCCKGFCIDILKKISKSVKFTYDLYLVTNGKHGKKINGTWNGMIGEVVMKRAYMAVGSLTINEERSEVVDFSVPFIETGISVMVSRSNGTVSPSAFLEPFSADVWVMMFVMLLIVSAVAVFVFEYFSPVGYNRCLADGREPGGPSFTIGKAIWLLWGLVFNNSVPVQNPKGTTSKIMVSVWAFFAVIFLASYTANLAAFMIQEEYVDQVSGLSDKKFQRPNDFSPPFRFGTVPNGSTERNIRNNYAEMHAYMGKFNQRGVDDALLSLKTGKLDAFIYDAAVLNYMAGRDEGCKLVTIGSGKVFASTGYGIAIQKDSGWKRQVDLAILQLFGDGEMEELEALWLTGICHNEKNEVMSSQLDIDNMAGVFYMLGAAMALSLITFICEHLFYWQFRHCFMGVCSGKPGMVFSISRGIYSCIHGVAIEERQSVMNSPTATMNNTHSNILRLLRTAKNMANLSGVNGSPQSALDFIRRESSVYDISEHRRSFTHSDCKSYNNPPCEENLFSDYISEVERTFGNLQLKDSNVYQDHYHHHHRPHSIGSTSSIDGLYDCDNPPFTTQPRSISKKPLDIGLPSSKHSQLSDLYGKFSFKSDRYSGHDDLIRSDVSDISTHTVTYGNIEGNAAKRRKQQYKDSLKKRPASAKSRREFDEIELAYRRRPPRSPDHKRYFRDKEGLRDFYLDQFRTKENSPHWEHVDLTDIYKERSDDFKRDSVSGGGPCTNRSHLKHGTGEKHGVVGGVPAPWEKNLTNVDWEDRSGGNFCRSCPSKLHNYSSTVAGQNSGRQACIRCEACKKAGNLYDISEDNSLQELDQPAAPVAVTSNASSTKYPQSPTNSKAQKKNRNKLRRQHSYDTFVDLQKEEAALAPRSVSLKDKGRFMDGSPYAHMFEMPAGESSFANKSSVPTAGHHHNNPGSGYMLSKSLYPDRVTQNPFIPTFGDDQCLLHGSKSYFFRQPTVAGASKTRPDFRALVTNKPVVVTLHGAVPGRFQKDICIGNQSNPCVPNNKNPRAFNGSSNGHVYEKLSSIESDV

Columns and labels:
[1] = biological target: T1, ifenprodil-binding site of NMDA receptor (NR2B subunit) (Rattus norvegicus, UniProt P35439+Q00960); test: Radioligand binding assay, [3H]ifenprodil displacement
T1 construct: from tissue; host or cells: rat hippocampus membranes

[2] = biological target: T2, MK-801-binding (intrachannel) site of NMDA receptor (Rattus norvegicus, UniProt P35439); test: Radioligand binding assay, [3H]MK-801 displacement
T2 construct: from tissue; host or cells: rat hippocampus membranes

Structure (SMILES): CC12CC3CC(C)(C1)CC(N)(C3)C2 [memantine, reference compound]
- Ki [1]: 115 ± 6.5 µM
- Ki [2]: 0.8 ± 0.1 µM
